Results: ChEMBL document CHEMBL1156604 (Bioorg Med Chem Lett, 2008)

How the values were obtained:
[1] = species on record: Homo sapiens; experiment: Selectivity ratio of Ki for human kappa opioid receptor to Ki for human delta opioid receptor
[2] = species on record: Homo sapiens; experiment: Selectivity ratio of Ki for human mu opioid receptor to Ki for human delta opioid receptor

Question: What does the source list for `Oc1ccc2c(c1)[C@@]13CCCC[C@H]1[C@@H](C2)N(CC1CCC1)CC3`?
Answer: Ratio Ki [1]: 3; Ratio Ki [2]: 75
